Results on ten molecules are retold here after ChEMBL document CHEMBL3621132, “Discovery of diazepane amide DORAs and 2-SORAs enabled by exploration of isosteric quinazoline replacements” (Bioorg Med Chem Lett, 2015).

One data set is filed under the species Homo sapiens. The experiment in a line: Selectivity ratio of IC50 for human orexin 1 receptor Ile408-Val mutant to IC50 for human orexin 2 receptor.
The target in the next data set is Orexin receptor type 2 (Homo sapiens, UniProt O43614). The experiment in a line: Binding affinity to human orexin 2 receptor expressed in CHO cells after 3 hrs by radioligand binding assay.
Data set [1] relates to Liver microsome. Nature of the data set: Bioactivation of compound in human liver microsomes assessed as AUC of GSH-adduct formation at 10 uM after 60 mins by HRMS analysis relative to labetalol. The settings on record: 1 h. A general note: Liver microsomes are a subcellular fraction often used to study metabolism.
Data set [2] relates to Liver microsome. Nature of the data set: Bioactivation of compound in rat liver microsomes assessed as AUC of GSH-adduct formation at 10 uM after 60 mins by HRMS analysis relative to labetalol. Particulars: 1 h.
The subject of data set [3] is P-glycoprotein. Nature of the data set: Permeability of the compound assessed as human p-glycoprotein-mediated permeability ratio from basolateral to apical direction. In kind it is ADME. Particulars: not told.
The subject of data set [4] is P-glycoprotein. The experiment in a line: Permeability of the compound assessed as rat p-glycoprotein-mediated permeability ratio from basolateral to apical direction. In kind it is ADME. Particulars: not told.

Turning to `C[C@@H]1CCN(c2nc(Cl)ncc2C(F)(F)F)CCN1C(=O)c1ccccc1-n1nccn1`, in the data set filed under Homo sapiens, the Ratio IC50 was above 139. In the data set with Orexin receptor type 2, the Ki is 7.7 nM.

On to `Cc1ncc(C(F)(F)F)c(N2CC[C@@H](C)N(C(=O)c3ccccc3-n3nccn3)CC2)n1`, for which, in the data set filed under Homo sapiens, the Ratio IC50 is above 114.

`Cc1nc(N2CC[C@@H](C)N(C(=O)c3ccccc3-n3nccn3)CC2)ncc1C(F)(F)F` came in with a Ki in the data set with Orexin receptor type 2 of 0.5 nM. Same read-out and setting: next, `Cc1ccc(-n2nccn2)c(C(=O)N2CCN(c3ncc(Cl)c(C)n3)CC[C@H]2C)c1`: 0.6 nM. `COc1nc(N2CC[C@@H](C)N(C(=O)c3cc(C)ccc3-n3nccn3)CC2)ncc1C(F)(F)F`: the results for the Ratio in the data set with Liver microsome [1] and in the data set with Liver microsome [2] were 0.5 and 0.4, respectively. Moreover, the efflux ratio was 0.7 with P-glycoprotein [3] and 1.2 in the data set on P-glycoprotein [4]. In the data set with Orexin receptor type 2, this molecule showed a Ki of 0.4 nM. Molecule `C[C@@H]1CCN(c2ncc(C(F)(F)F)c(Cl)n2)CCN1C(=O)c1ccccc1-n1nccn1` displayed a Ki in the data set with Orexin receptor type 2 of 0.7 nM.

Consider `Cc1ncc(Cl)c(N2CC[C@@H](C)N(C(=O)c3ccccc3-n3nccn3)CC2)n1`, for which, in the data set filed under Homo sapiens, the Ratio IC50 was above 208. The same measure, in the same setting: under `C[C@@H]1CCN(c2nc(Cl)ncc2Cl)CCN1C(=O)c1ccccc1-n1nccn1` stands 128; under `Cc1cnc(Cl)nc1N1CC[C@@H](C)N(C(=O)c2ccccc2-n2nccn2)CC1`, 62. Consider `Cc1ncc(C)c(N2CC[C@@H](C)N(C(=O)c3ccccc3-n3nccn3)CC2)n1`, for which the Ratio IC50 in the data set listed under Homo sapiens was above 122. The Ki in the data set with Orexin receptor type 2 was determined as 12 nM.

As usually defined, the Ki is the dissociation constant of the complex between target and ligand, obtained from inhibition or displacement. The efflux ratio is a quotient of directional permeabilities that is used to spot active efflux.
